Test results as given in ChEMBL document CHEMBL1156261, “Evaluation of substituted N,N'-diarylsulfonamides as activators of the tumor cell specific M2 isoform of pyruvate kinase” (J Med Chem, 2010).

Protein sequences, listed by entry. Tags and fused reporters are not part of them.
UniProt P14618, whole entry, looked up: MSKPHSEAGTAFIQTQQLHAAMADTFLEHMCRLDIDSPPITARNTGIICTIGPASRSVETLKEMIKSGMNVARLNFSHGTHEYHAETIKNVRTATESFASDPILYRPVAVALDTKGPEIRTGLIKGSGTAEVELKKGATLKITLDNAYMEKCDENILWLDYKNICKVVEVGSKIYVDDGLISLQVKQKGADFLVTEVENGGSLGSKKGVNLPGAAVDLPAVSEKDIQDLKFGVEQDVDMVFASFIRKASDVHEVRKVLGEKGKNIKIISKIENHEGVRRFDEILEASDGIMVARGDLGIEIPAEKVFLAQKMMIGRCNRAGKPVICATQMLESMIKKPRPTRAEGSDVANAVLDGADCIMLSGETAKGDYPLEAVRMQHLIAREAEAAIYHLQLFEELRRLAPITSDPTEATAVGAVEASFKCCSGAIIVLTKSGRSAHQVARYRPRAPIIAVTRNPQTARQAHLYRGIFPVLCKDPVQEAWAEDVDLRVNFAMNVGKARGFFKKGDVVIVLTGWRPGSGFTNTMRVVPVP

Molecular target: Pyruvate kinase PKM (Homo sapiens, UniProt P14618)
Assay: Activation of PKM2 assessed as reduction of Km for phosphoenolpyruvate relative to untreated control
Procedure, shortened: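 Steady-state kinetics were measured by the PK–LDH coupled assay at about 22 °C with 10 nM PKM2, 200 mM KCl and 15 mM MgCl2. One substrate (PEP or ADP) was varied with the other held at 4.0 mM, with or without activator. Fluorescence was converted to pmol NADH by a standard curve; initial rates (pmol/min) were fit for KM.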

**Q.** With `O=P(O)(O)OC[C@H]1O[C@@](O)(COP(=O)(O)O)[C@@H](O)[C@@H]1O` as the compound, how does the fold change (FC) read?
**A.** 10
